Values quoted from earlier work as cited in patent US20100190739A1, “Rapidly Dissolving Vitamin Formulation and Methods of Using the Same” (FLEMING AND COMPANY, PHARMACEUTICALS, priority 2008, published 2010).

Details: in vivo

iron
Intake level at which acute toxicity can occur: 40 mg/kg | Single dose that can be fatal: ≥ 200 mg/kg
